The values that follow come from ChEMBL document CHEMBL1147176, “Synthesis of S-dialkylarsino-3-mercapto-1,2-propanediols and evaluation of their anticancer activity” (2007).

One test relates to SK-MEL-28. Briefly: Anticancer activity against human SK-MEL-28 cells assessed as growth inhibition. The format is functional. Put shortly:
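NCI in vitro disease-oriented human tumor cell screen, about 60 lines. Growth inhibition read as pGI50, the -log of the molar concentration inhibiting 50% net cell growth. A mean graph midpoint is the arithmetic mean over all tested lines. Where the effect was not reached within the concentration interval, the highest tested concentration was used.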

Another test deals with SK-MEL-2. Briefly: Anticancer activity against human SK-MEL-2 cells assessed as growth inhibition. In kind it is functional, cell-based.
Another test relates to SNB-75. Briefly: Anticancer activity against human SNB75 cells assessed as growth inhibition. The format is functional, cell-based.
For a further test, the system named is MDA-MB-231. Briefly: Anticancer activity against human MDA-MB231/ATCC cells assessed as growth inhibition. In kind it is functional, cell-based.

What is called LC50 is the concentration lethal to half of the exposed cells or organisms.

For `CCC[As](CCC)SCC(O)CO` (configuration not stated), the LC50 in the test on SK-MEL-28 was 0.646 µM.
On to `CC(=O)OCC(CS[As](C)C)OC(C)=O` (configuration not stated), for which the LC50 is under 100 µM with SK-MEL-2, 40.7 µM in the test with SNB-75, 2.63 µM with MDA-MB-231 and 58.9 µM with SK-MEL-28.
As for `C[As](C)SCC(O)CO` (configuration not stated), the LC50 with SK-MEL-28 was 5.5 µM.
`CC[As](CC)SCC(O)CO` (configuration not stated): the LC50 in the test with SK-MEL-28 is 38.9 µM.
